Literature values in patent US10927398B2, “Compositions for CYP450 phenotyping using saliva samples” (Concordia University, Inc., priority 2015, dated 2021).

Conditions: Table of Exemplary Drugs, CYP3A4; cited from earlier work

CN(C)CCc1c[nH]c2ccc(CS(=O)(=O)N3CCCC3)cc12 [Almortriptan (Axert), Almortriptan]
HALF-LIFE: 3.5 h
